Experiment: Reconstitution of degarelix vials with WFI/surfactant solution: OD (absorbance) at 350 nm
Assay type: physicochemical
Details: vials reconstituted to 60 mg/ml degarelix, surfactant 1 mg/ml (0.1%) in WFI, 30 min, 60 min, 120 min, 24 hours
Procedure: Procedure: • Degarelix batch reconstituted using WFI (as control) and using WFI containing the surfactants. The vials are reconstituted to 60 mg/ml degarelix.

Tocopheryl-polyethylene-glycol-1000-succinate [TPCG]
optical density versus control: reduced the optical density to a level below the control
